Measured values as given in BindingDB's records for US9212153.

Biological target: Beta-secretase 1 [1-458] (Homo sapiens, UniProt P56817)
Experiment: BACE Enzyme Assay (Ex.434)
Settings: pH 4.5

## COC1CCC2(CC1)Cc1ccc(C#CC(F)(F)F)cc1C21N=C(N)N(C)C1=O (stereo unspecified)
  IC50: 4.9 nM
